Test results from US20050171023A1, “Caspase inhibitors for the treatment of diseases and conditions caused by exposure to radionuclides, biological agents, or chemical agents” (published 2005).

Tested on: ICR Mice (CD-1)
Test: Protection of mice from death caused by exposure to gamma radiation (Example 1, Experiment B)
Conditions: for Dead/Total animals: data at day 25

Cbz-Val-Asp-CH2F
animals protected from death caused by exposure to radiation (850 Rad gamma radiation, single IV administration of 20 mg/kg): about 38% | animals protected from death caused by exposure to radiation (850 Rad gamma radiation, single IV administration of 50 mg/kg): about 38% | Dead/Total animals (850 Rad gamma radiation, single IV injection 10 mg/kg 10 min following irradiation): 8/8 | Dead/Total animals (850 Rad gamma radiation, single IV injection 20 mg/kg 10 min following irradiation): 5/8 | Dead/Total animals (850 Rad gamma radiation, single IV injection 50 mg/kg 10 min following irradiation): 5/8 | effectiveness in protecting mice from death with higher dose of radiation (950 Rad gamma radiation, 10, 20 or 50 mg/kg IV, all animals died): not effective | Dead/Total animals (950 Rad gamma radiation, single IV injection 10 mg/kg 10 min following irradiation): 8/8 | Dead/Total animals (950 Rad gamma radiation, single IV injection 20 mg/kg 10 min following irradiation): 8/8 | Dead/Total animals (950 Rad gamma radiation, single IV injection 50 mg/kg 10 min following irradiation): 8/8
